# Experimental data taken from patent publication US20130203765A1, “DEUTERATED PYRROLOPYRIMIDINE COMPOUNDS AS INHIBITORS OF CDK4/6” (Novartis AG, priority 2010, published 2013).
# Protein sequences, listed by entry. Tags and fused reporters are not part of them. Lines headed by an entry give the natural chain unless they say otherwise; changes in a name come on top.
# UniProt P11802: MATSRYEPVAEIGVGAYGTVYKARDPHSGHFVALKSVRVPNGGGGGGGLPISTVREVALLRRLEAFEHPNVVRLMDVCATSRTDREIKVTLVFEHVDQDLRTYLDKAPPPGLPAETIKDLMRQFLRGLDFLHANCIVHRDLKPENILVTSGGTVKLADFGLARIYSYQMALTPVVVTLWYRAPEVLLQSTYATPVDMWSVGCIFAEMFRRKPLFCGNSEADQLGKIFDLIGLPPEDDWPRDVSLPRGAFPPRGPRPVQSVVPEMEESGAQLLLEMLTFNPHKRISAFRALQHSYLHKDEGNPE
# Target: T1, CDK4/cyclin D1 (Homo sapiens, UniProt P11802)
# T1 construct: His6 (N); made in house; host or cells: Sf21 insect cells (baculovirus)
# Assay: CDK4/cyclin D1 enzymatic activity assay (Lance TR-FRET)
# Type: biochemical
# Conditions: 0.3 nM CDK4/cyclin D1, 175 nM pRb152, 3 μM ATP, 60 min
# Description: The same assay was used for IC50 determination of small molecule inhibitors. In general, the kinase reactions were carried out in 30 μL volumes in the reaction solution containing the following: 2 uL compound (in 20% DMSO), 18 uL CDK4/cyclin D1 in Assay Buffer (50 mM HEPES, pH 7.5, 5 mM MgCl2, 2 mM MnCl2, 1 mM DTT, 0.05% BSA, 0.02% Tween-20), 10 uL of the mixture of pRb152 and ATP. […] All reactions were run at room temperature in 384-well white flat-bottom OptiPlates (Perkin Elmer, Cat. No. 6007290) for 60 min then were quenched by the addition of 10 μL of 120 mM EDTA. The signals were captured by the addition of 40 μL of the Detection Solution containing the following: Detection Buffer (50 mM HEPES, pH 7.5, 30 mM EDTA, 0.1% Triton x-100, 0.05% BSA), 70 ng/mL anti-phospho-pRb(S780) (Cell Signaling Technology, Cat. No. 9307S), 1 nM Lance Eu-W1024-Rabbit anti-IgG (Perkin Elmer, Cat. No. AD0082), and 20 nM SureLight™ Allophycocyanin-Streptavidin (Perkin Elmer, Cat. No. CR130-100). The resulted solutions were incubated at room temperature for 2 hours before read on the Evision Multilabel Reader (Perkin Elmer, Envision 2102-0010).
substance,measurement,value
"7-cyclopentyl-2-(5-piperzin-1-yl-pyridin-2-ylamino)-7H-pyrrolo[2,3-d]pyrimidine-6-carboxylic acid dimethylamide-d5 [Example 1]",IC50,25 nM
